# Reference: patent publication US20110281852A1 (priority 2010, published 2011)
# Test system: RN46A cells
# Experiment: MTT assay, viability of RN46A cells
# Settings: evodiamine 2 and 4 μM
substance,measurement,value
evodiamine,effect on cell viabilities,did not appear to decrease cell viabilities significantly
